Test results as given in EP0663912B1, “HETEROCYCLIC ETHER COMPOUNDS THAT ENHANCE COGNITIVE FUNCTION” (ABBOTT LABORATORIES, priority 1992, dated 1994).

Test system: cholinergic channel receptors in PC12 cells
Experiment: Whole-cell patch-clamp measurement of cholinergic channel activation in NGF-differentiated PC12 cells
Assay type: cell-based, rat
Settings: 50 µM (-)-nicotine, individual PC12 cells A-E, holding potential -60 mV
Excerpt: B. Protocols for the Determination of Cholinergic Channel Activation in PC12 Cells.
The cholinergic channel activator properties of Example 9 were investigated in PC12 cells using the whole-cell patch-clamp approach to measure current flow through ligand-gated membrane channels. […]
PC12 cells are a rat pheochromocytoma cell line that, upon treatment with nerve growth factor (NGF) differentiate into a neuronal phenotype and express nicotinic cholinergic channels (Greene & Tischier, Proceedings of the National Academy of Sciences of the United States of America, 73: 2424-2428, 1976; Dichter et al., Nature, 268: 501-504, 1977). Prominent neuronal cholinergic channel subunits in these cells are α3, α5, β2, β3 and β4 (Rogers et al., Journal of Neuroscience, 12: 4611-4623, 1992). […]
The whole-cell patch-clamp technique was used to record voltage-activated currents and ligand-gated currents activated by substances applied through the U-tube flow-reversal technique (Fenwick et al., The Journal of Physiology (London) 331: 577-597, 1982). […] Voltage-gated inward (sodium) and outward (potassium) currents were monitored throughout the experiment to determine establishment and maintenance of the whole-cell recording configuration. […]

CN1CCCC1c1cccnc1 (single isomer, unassigned; (-)) [(-)-nicotine, reference compound]
CURRENT AT PEAK: 283 pA
